Consider one compound from BindingDB's records for PubMed 8114680 (University of Pennsylvania, 1994).

Chains of the proteins cited; added tags and fusions are not shown.
UniProt P35372, whole entry: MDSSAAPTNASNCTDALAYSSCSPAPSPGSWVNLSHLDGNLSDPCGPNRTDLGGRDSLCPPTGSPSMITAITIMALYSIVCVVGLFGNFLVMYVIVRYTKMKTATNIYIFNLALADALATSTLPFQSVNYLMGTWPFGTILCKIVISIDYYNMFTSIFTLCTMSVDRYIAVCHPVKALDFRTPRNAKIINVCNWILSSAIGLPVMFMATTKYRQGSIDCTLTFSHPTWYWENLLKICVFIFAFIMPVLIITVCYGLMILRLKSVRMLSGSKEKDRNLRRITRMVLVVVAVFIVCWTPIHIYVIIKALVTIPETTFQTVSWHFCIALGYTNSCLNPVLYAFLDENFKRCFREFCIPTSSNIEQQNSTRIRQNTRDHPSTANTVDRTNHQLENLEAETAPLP

pKi: −log10 of the molar value.

As usually defined, the pKi is the Ki on a negative log10 scale, so that one unit is a factor of ten. A lower pKi goes with a high Ki.

The experiment addresses Mu-type opioid receptor (Homo sapiens, UniProt P35372).

Consider `CCC12CCN(CC3(O)CC3)C(Cc3ccc(O)cc31)C2(C)C` (stereo unspecified), for which the pKi is 9.12.
